Literature values as cited in patent US9902758B2, “Three-helix bundle protein and use thereof” (Samsung Electronics Co., Ltd., priority 2015, dated 2018).

Sequences of proteins named here, by UniProt entry; tags and fusion partners are left off.
UniProt Q00987, whole entry: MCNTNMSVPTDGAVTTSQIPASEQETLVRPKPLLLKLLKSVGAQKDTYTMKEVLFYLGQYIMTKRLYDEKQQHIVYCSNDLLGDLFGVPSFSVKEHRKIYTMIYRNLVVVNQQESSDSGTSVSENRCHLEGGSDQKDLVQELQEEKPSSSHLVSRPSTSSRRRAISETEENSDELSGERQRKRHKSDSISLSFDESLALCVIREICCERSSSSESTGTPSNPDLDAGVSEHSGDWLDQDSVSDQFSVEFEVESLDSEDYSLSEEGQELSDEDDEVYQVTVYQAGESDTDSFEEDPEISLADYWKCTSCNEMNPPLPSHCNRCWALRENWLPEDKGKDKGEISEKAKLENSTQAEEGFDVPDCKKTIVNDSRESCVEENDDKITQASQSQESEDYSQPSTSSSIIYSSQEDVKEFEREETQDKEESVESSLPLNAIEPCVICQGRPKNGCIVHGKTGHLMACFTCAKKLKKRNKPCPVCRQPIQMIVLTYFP

Molecular target: HDM2 (Homo sapiens, UniProt Q00987)
Details: related art statement; cited from earlier work

SMILES: COc1ccc(C2=N[C@@H](c3ccc(Cl)cc3)[C@@H](c3ccc(Cl)cc3)N2C(=O)N2CCNC(=O)C2)c(OC(C)C)c1 [Nutlin-3]
- inhibition of binding of HDM2/HDMX and p53: inhibit only the binding of HDM2 and p53
